PubChem BioAssay (NCI)
“And” between values parts separate entries of the source, which are not always exact repeats. Equal values may be shown once. The list shows a part of the results, in another mix than the full data. Some tests of the compounds listed are not included; inactive here does not mean inactive elsewhere. The source made the active and inactive calls. Rule as the data show it: active = growth inhibition above about 70%; inactive = the rest.

Key:
[1] = NCI Yeast Anticancer Drug Screen. Data for the rad50 strain (AID 155);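 also: 0% = growth of vehicle-only cultures of the same strain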; settings: S. cerevisiae rad50 strain growth inhibition; at 50.0 µM; stronger effect = higher value
[2] = NCI Yeast Anticancer Drug Screen. Data for the mec2-1 strain (AID 157); settings: S. cerevisiae mec2-1 strain, at 50.0 µM, stronger effect = higher value
[3] = NCI Yeast Anticancer Drug Screen. Data for the sgs1 mgt1 strain (AID 161);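 also: 0% = growth of cultures given vehicle only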; settings: S. cerevisiae sgs1 mgt1 strain, at 50.0 µM, stronger effect = higher value
[4] = NCI Yeast Anticancer Drug Screen. Data for the cln2 rad14 strain (AID 165);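 also: 0% = growth equal to vehicle treated cultures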; settings: S. cerevisiae cln2 rad14 strain, at 50.0 µM, stronger effect = higher value
[5] = NCI Yeast Anticancer Drug Screen. Data for the bub3 strain (AID 167); settings: S. cerevisiae bub3 mutant strain, at 50.0 µM, stronger effect = higher value
[6] = NCI Yeast Anticancer Drug Screen. Data for the mlh1 rad18 strain (AID 175); settings: S. cerevisiae mlh1 rad18 strain growth inhibition; at 50.0 µM; stronger effect = higher value

Measured: growth inhibition

O=C(OC1CCN(CC2CC2)CC1)C(O)(c1ccccc1)c1ccccc1
inactive: [1] 55% | [2] 36.6% | [3] 51.9% | [4] 36.4% | [5] 35.6% | [6] 53.4%

CN1CCC=C(COC(=O)C(O)(c2ccccc2)C2CCCC2)C1 (stereo not drawn)
inactive: [1] -7.05% | [2] -15.9% | [3] -17.4% | [4] 4.3% | [5] 16.9% | [6] 1%

CCC#CC(O)(C(=O)OC1CN2CCC1CC2)C1CCCC1 (stereo not drawn)
inactive: [1] 35.4% | [2] 30.4% | [3] 49.6% | [4] 35.5% | [5] 40.2% | [6] 46.3%

CC#CC(O)(C(=O)OC1CCN(C)CC1)c1ccccn1 (stereo not drawn)
inactive: [1] 16.9% | [2] 6.9% | [3] 1.35% | [4] 16.7% | [5] 22.3% | [6] 35.7%

O=C(CBr)c1ccc(Cl)cc1
inactive: [1] 36.4% | [2] 10.6% | [3] 23.4% | [4] 21.3% | [5] 31.6% | [6] 44.2%

CC(C)C(O)(C(=O)OCC1=CN2CCC1CC2)c1ccccc1 (stereo not drawn)
inactive: [1] -0.2% | [2] 17.1% | [3] 0.5% | [4] -0.55% | [5] -6.45% | [6] -13.5%

N#CC(C#N)=Cc1cccc(Br)c1
inactive: [1] 7.3% | [2] 22.5% | [3] 18.2% | [4] 14.1% | [5] 26% | [6] 18%

C=C(C)C(O)(C(=O)OC1CN2CCC1CC2)c1cccs1 (stereo not drawn)
inactive: [1] -46.6% | [2] -11.2% | [3] 3.9% | [4] -16.4% | [5] 11.4% | [6] -38.2%

CN1CCC(OC(=O)C(O)(c2ccccc2)c2ccns2)CC1 (stereo not drawn)
inactive: [1] 11.2% | [2] 2.4% | [3] -30.6% | [4] 7.1% | [5] 5% | [6] -10.3%

CN1CCCC(OC(=O)C(O)(C#Cc2ccccc2)c2ccccc2)C1 (stereo not drawn)
inactive: [1] 7.45% | [2] 2.7% | [3] -3% | [4] 4.9% | [5] 1.9% | [6] 12.6%

CN(C)C(=O)Oc1ccc(-c2ccccc2)cc1C[N+]1(C)CCCCC1
inactive: [1] -2.85% | [2] 3.6% | [3] 4.55% | [4] 7.55% | [5] -4.55% | [6] 5.9%

C/C=C\C(O)(C(=O)O[C@@H]1C2CCN(CC2)[C@@H]1C)C1CCCC1 (stereo partly drawn)
inactive: [1] 38.5% | [2] 19.1% | [3] 27.6% | [4] 12.9% | [5] 24.4% | [6] 34.1%

C=C(C)C#CC(O)(C(=O)OC1CN2CCC1CC2)C1CCCCC1 (stereo not drawn)
inactive: [1] 28.2% | [2] 4.15% | [3] 12.2% | [4] 9.05% | [5] 12.7% | [6] 11.9%

CN1C2CCC1CC(OC(=O)C(O)(c1ccccc1)c1ccccc1)C2 (stereo not drawn)
inactive: [1] -5.2% | [2] 9.85% | [3] 6.5% | [4] -2.3% | [5] -11.1% | [6] -5.1%

C=C(C)C#CC(O)(C(=O)OC1CCN(C)CC1)c1ccccc1 (stereo not drawn)
inactive: [1] -14.9% | [2] -1.75% | [3] -15.6% | [4] -7.85% | [5] -4.6% | [6] -1.65%

O=C(OC1CN2CCC1CC2)C(c1ccccc1)C1(O)CCCC1 (stereo not drawn)
inactive: [1] -14.8% | [2] 4.35% | [3] -10.7% | [4] -15.8% | [5] -2.65% | [6] -15.6%

ClCCN(CCCl)C1CCc2ccccc2C1 (stereo not drawn)
inactive: [1] 7.8% | [2] -11.8% | [3] 23.9% | [4] 39.6% | [5] 5% | [6] 30.6%

CC/C=C\C(O)(C(=O)OC1CN2CCC1CC2)C1CCCC1 (stereo not drawn)
inactive: [1] 47.4% | [2] 37.6% | [3] 60.5% | [4] 41.1% | [5] 42.1% | [6] 27.8%

CC#CC(O)(C(=O)OCC1=CCCN(C)C1)c1ccccc1 (stereo not drawn)
inactive: [1] 2.9% | [2] -1.6% | [3] 32.8% | [4] 22.1% | [5] 15.8% | [6] -40.7%

CN1CCC(OC(=O)C(O)(c2ccccc2)c2ccccc2)CC1
inactive: [1] 10.4% and 21.6% | [2] 9.05% and -13.1% | [3] 0.3% and -2% | [4] -1.85% and 14.6% | [5] -2.85% and 0.65% | [6] -2.5% and -4.4%

CC#CC(O)(C(=O)OC1CN2CCC1CC2)C(C)C (stereo not drawn)
inactive: [1] 4.05% | [2] -0.6% | [3] 8.35% | [4] -3.05% | [5] 4.8% | [6] 6.9%

CC(C)C(O)(C(=O)OCC1=CC2CCN1CC2)c1ccccc1 (stereo not drawn)
inactive: [1] 34.8% | [2] 25.8% | [3] -3.2% | [4] -4.85% | [5] 1.3% | [6] 2.55%

O=C(OCCC1=C2CCN(CC2)C1)C(O)(c1ccccc1)C1CCCC1 (stereo not drawn)
inactive: [1] 26.9% | [2] 11.1% | [3] 45.9% | [4] 16.5% | [5] 28.8% | [6] 28.6%
